# Experimental data: DBAASP
# Tests used:
# Test in all cases: ≥ marks a high value that may be exact or a test limit, other limits are often not marked, values filed in µg/mL are converted to µM
# [1] = tested on: Pseudomonas syringae pv. syringae EPS 94
# [2] = tested on: Erwinia amylovora PMV 6076
# [3] = tested on: Xanthomonas campestris pv. Vesicatoria 2133-2
# Saccharomyces cerevisiae = tested on: Saccharomyces cerevisiae
# Staphylococcus aureus = tested on: Staphylococcus aureus
# Streptococcus pneumoniae = tested on: Streptococcus pneumoniae
# Salmonella typhimurium = tested on: Salmonella typhimurium
# Escherichia coli = tested on: Escherichia coli
# Pseudomonas putida = tested on: Pseudomonas putida
# Serratia marcescens = tested on: Serratia marcescens
# Bacillus subtilis = tested on: Bacillus subtilis
# Candida albicans = tested on: Candida albicans
# Streptococcus mutans = tested on: Streptococcus mutans
# Cryptococcus neoformans = tested on: Cryptococcus neoformans
# [4] = tested on: Staphylococcus aureus ATCC 6538
# [5] = tested on: Staphylococcus epidermidis ATCC 12228
# [6] = tested on: Pseudomonas aeruginosa ATCC 10145
# [7] = tested on: Escherichia coli ATCC 11775
# [8] = tested on: Staphylococcus epidermidis ATCC 14990
smiles,measurement,setting,value
CC[C@H](C)[C@H](NC(=O)[C@H](CC(C)C)NC(=O)[C@H](C)NC(=O)[C@@H]1CCCN1C(=O)[C@H](CC(C)C)NC(=O)CNC(=O)[C@@H](NC(=O)[C@@H](NC(=O)[C@H](C)NC(=O)[C@@H]1CCCN1C(=O)CNC(=O)[C@H](C)NC(=O)[C@H](CC(C)C)NC(=O)[C@H](Cc1ccc(O)cc1)NC(=O)[C@H](CCCCN)NC(=O)[C@H](CC(C)C)NC(=O)[C@@H](NC(=O)[C@H](CCCCN)NC(=O)[C@H](CCCCN)NC(=O)[C@H](Cc1ccccc1)NC(=O)[C@H](CC(C)C)NC(=O)[C@H](CCCCN)NC(=O)[C@@H](N)CCCCN)[C@@H](C)CC)[C@@H](C)O)[C@@H](C)O)C(=O)N[C@@H](CO)C(=O)N[C@@H](Cc1c[nH]c2ccccc12)C(=O)O [KKLFKKILKYLAGPATTGLPALISW],MIC,[1],1.77 µM
same,MIC,[2],3.54 µM
same,MIC,[3],3.54 µM
CC(C)C[C@H](NC(=O)[C@H](CC(C)C)NC(=O)[C@H](CCCN=C(N)N)NC(=O)[C@H](Cc1cnc[nH]1)NC(=O)[C@@H](NC(=O)[C@H](CCCN=C(N)N)NC(=O)CNC(=O)[C@@H](NC(=O)[C@@H]1CCCN1C(=O)[C@H](Cc1ccccc1)NC(=O)[C@@H](N)CCC(N)=O)C(C)C)C(C)C)C(=O)N[C@@H](CCCN=C(N)N)C(=O)N[C@@H](CCCCN)C(=O)O [QFPVGRVHRLLRK],MIC,Saccharomyces cerevisiae,≥ 39.9 µM
same,MIC,Staphylococcus aureus,39.9 µM
same,MIC,Streptococcus pneumoniae,9.96 µM
same,MIC,Salmonella typhimurium,9.96 µM
same,MIC,Escherichia coli,19.9 µM
same,MIC,Pseudomonas putida,9.96 µM
same,MIC,Serratia marcescens,19.9 µM
same,MIC,Bacillus subtilis,9.96 µM
same,MIC,Candida albicans,39.9 µM
same,MIC,Streptococcus mutans,19.9 µM
same,MIC,Cryptococcus neoformans,≥ 39.9 µM
CC(C)C[C@H](NC(=O)[C@H](CCCCN)NC(=O)[C@H](Cc1ccccc1)NC(=O)[C@H](CCC(=O)O)NC(=O)[C@H](CC(C)C)NC(=O)[C@H](CCCN=C(N)N)NC(=O)[C@@H](N)C(C)C)C(=O)N[C@@H](CCC(N)=O)C(=O)N[C@@H](CCC(N)=O)C(=O)N[C@H](C(=O)N[C@@H](CO)C(=O)N[C@@H](CS)C(=O)N[C@@H](CCCN=C(N)N)C(=O)N[C@@H](CCCCN)C(=O)N[C@@H](CCCN=C(N)N)C(=O)N[C@@H](CC(=O)O)C(=O)N[C@@H](Cc1c[nH]c2ccccc12)C(=O)N[C@@H](CCCCN)C(=O)N[C@@H](CCCCN)C(=O)N1CCC[C@H]1C(=O)O)[C@@H](C)O [VRLEFKLQQTSCRKRDWKKP],MIC,[4],4.91 µM
same,MIC,[5],4.91 µM
same,MIC,[6],2.47 µM
same,MIC,[7],1.74 µM
same,MIC,[8],4.91 µM
